Drawing on patent US20070071699A1, “Benzylidene-1,3-thiazolidine-2,4-dione compounds for promoting and/or inducing and/or stimulating the pigmentation of keratin materials and/or for limiting their depigmentation and/or whitening” (L'OREAL, priority 2005, published 2007), this text covers IC50 for 10 compounds.

Structures are written as SMILES.

The target in this assay is T1, type-1 15-PGDH (Homo sapiens, UniProt P15428).
T1 construct: made in house
T1 sequence (P15428 1-266): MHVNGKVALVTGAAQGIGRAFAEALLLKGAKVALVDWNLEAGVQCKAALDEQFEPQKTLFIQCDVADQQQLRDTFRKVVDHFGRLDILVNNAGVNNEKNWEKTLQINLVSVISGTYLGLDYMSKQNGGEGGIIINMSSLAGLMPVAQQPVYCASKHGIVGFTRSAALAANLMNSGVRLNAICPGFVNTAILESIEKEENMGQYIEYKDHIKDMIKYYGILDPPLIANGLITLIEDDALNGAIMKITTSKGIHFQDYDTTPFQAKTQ
Kind of assay: Test on type-1 15-PGDH (spectrophotometric, NADH formation at 340 nm, PGE2 substrate). The assay is classed as biochemical. The settings on record: IC50dh (concentration reducing the enzymatic activity of 15-PGDH by 50%), 37° C., pH 7.4 Tris buffer, 1.5 mM β-NAD, 50 μM Prostaglandin E2. How it is done: For the purposes of the test, this suspension is thawed and stored in ice.
0.965 ml of this buffer (brought to 37° C. beforehand) is introduced into the cuvette of a spectrophotometer (Perkin-Elmer, Lambda 2) thermostatically maintained at 37° C., the measuring wavelength of which is set at 340 nm. 0.035 mL of enzymatic suspension at 37° C. is introduced into the cuvette concomitantly with the recording (corresponding to an increase in the optical density at 340 nm). The maximum reaction rate is recorded.
As for `O=C1NC(=O)/C(=C/c2ccccc2Oc2ccccc2)S1` [Compound 1], it took 12 µM to reach half-maximal inhibition (IC50).
For `O=C1NC(=O)/C(=C/c2ccccc2Oc2ccc(Cl)cc2)S1` [Compound 2], the IC50 was 5 µM. Compared with the last compound, the IC50 is about 2.4-fold lower.
In turn, `CC(C)(C)c1ccc(Oc2ccccc2/C=C2\SC(=O)NC2=O)cc1` [Compound 3] had an IC50 of 0.08 µM.
In the case of `CC(C)(C)c1ccc(Oc2ccccc2/C=C2\SC(=O)NC2=O)cc1` [Compound 4, (5Z)-5-[2-(4-tert-butylphenoxy)benzylidene]-1,3-thiazolidine-2,4-dione] it was 0.094 µM.
The value for `O=C1NC(=O)/C(=C/c2ccccc2Oc2ccc(F)c(F)c2)S1` [Compound 8] was 1.3 µM; that for `O=C1NC(=O)/C(=C\c2ccccc2Oc2cccc(C(F)(F)F)c2)S1` [Compound 9] was 2.4 µM.
In the case of `O=C1NC(=O)/C(=C/c2ccccc2Oc2ccc(Cl)c(F)c2)S1` [Compound 12] it was 0.46 µM; in that of `O=C1NC(=O)/C(=C\c2ccccc2Oc2ccc([C@]34C[C@H]5C[C@H](C[C@H](C5)C3)C4)cc2)S1` [Compound 17], 1.4 µM; in that of `CCC(C)(C)c1cc(C)c(Oc2ccccc2/C=C2\SC(=O)NC2=O)c(C)c1` [Compound 18], 8 µM.
Regarding `CC(C)(C)c1ccc(Oc2ccc(/C=C3\SC(=O)NC3=O)cc2)cc1` [Compound 20], the IC50 is 0.085 µM.
